# Results reported in patent EP1682577B1, “CELL-BASED ASSAYS EMPLOYING VOLTAGE AND CALCIUM DYES” (priority 2003, dated 2005).
# By UniProt entry, the sequences of proteins in these tests, tags left out. Residues count along the entry.
# UniProt P47871, 26-477, species assumed: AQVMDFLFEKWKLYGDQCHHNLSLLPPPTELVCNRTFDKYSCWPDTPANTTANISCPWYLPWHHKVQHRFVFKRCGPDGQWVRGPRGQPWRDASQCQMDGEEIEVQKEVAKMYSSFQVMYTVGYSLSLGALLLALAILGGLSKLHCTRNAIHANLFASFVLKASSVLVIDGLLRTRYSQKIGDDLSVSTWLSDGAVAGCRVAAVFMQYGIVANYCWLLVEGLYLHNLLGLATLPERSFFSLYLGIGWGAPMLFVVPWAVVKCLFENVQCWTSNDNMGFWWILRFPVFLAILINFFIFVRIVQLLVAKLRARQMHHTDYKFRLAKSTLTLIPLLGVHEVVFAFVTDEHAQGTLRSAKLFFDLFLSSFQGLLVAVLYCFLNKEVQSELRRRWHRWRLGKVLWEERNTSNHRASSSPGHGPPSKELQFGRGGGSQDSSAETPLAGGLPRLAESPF
# Where “and” joins values, the source holds several entries; their conditions need not be identical. Identical values can stand only once.
# Target: T1, GCGR (Homo sapiens, UniProt P47871)
# T1 construct: expressed in transfected cells
# Assay type: cell-based
substance,measurement,value
glucagon,Fmax/ Fb,4.2 and 4.9 and 4 and 4.6
